Earlier results, collected in patent US20060110767A1, “Genotyping assay to predict cytochrome P4503A5 exression” (priority 2001, published 2006).

Amino acid sequences for entries named in this document (tags omitted).
UniProt P24462, whole entry: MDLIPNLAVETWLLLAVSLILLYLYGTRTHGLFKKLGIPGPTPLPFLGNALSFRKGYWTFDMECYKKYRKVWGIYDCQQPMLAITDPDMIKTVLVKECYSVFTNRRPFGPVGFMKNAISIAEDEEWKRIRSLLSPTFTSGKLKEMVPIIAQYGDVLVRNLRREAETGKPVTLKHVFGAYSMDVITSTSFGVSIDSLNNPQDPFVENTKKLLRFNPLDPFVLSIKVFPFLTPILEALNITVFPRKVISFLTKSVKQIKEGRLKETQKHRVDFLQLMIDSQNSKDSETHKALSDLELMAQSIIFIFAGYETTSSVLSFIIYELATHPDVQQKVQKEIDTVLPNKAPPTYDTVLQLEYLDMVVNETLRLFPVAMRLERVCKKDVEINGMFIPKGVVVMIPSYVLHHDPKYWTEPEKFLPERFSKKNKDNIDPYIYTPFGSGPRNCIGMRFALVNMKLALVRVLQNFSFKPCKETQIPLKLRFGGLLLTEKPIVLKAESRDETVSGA
UniProt P20815, whole entry: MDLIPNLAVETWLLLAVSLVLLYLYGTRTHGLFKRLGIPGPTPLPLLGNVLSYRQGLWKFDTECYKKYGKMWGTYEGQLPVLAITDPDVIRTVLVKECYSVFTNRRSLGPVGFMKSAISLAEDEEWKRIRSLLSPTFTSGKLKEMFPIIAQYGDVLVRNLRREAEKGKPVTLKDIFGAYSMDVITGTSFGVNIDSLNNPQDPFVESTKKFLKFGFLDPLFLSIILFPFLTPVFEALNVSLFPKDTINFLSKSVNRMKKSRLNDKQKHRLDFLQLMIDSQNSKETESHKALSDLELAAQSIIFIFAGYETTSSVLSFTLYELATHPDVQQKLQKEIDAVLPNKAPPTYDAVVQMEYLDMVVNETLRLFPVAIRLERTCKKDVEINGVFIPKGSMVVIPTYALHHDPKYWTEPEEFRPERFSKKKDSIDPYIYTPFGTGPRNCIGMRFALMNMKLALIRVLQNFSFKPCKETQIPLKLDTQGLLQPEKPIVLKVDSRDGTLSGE
UniProt P08684, whole entry: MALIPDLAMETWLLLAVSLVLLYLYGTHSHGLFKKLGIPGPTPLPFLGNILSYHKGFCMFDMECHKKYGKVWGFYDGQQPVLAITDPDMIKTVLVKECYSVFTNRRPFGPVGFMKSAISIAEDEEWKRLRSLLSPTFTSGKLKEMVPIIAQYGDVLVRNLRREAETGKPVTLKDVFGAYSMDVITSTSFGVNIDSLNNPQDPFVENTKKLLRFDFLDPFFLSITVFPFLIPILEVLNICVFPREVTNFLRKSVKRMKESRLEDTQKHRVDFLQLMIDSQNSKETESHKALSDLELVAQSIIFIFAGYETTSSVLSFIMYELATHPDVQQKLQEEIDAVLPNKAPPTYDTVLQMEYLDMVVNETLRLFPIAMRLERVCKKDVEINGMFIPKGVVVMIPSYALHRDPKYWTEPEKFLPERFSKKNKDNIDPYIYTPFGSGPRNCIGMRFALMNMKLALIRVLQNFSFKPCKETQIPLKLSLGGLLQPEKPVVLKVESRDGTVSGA

Tests used:
Parameters in all cases: key to the marks not given beside the values
Details in all cases: cited from earlier work
CYP3A7 = CYP3A7 (Homo sapiens, UniProt P24462)
CYP3A5 = CYP3A5 (Homo sapiens, UniProt P20815)
CYP3A4 = CYP3A4 (Homo sapiens, UniProt P08684)

dehydroepiandrosterone 3-sulphate [DHEA-S]
CYP isoforms expressed in cells 3A7 (CYP3A7): +++
CYP isoforms expressed in cells 3A5 (CYP3A5): ++
CYP isoforms expressed in cells 3A4 (CYP3A4): ++
